Reference: ChEMBL document CHEMBL5506053, “Explorations of Agonist Selectivity for the α9* nAChR with Novel Substituted Carbamoyl/Amido/Heteroaryl Dialkylpiperazinium Salts and Their Therapeutic Implications in Pain and Inflammation” (J Med Chem, 2024)

Sequences of proteins named here, by UniProt entry; tags and fusion partners are left off. A change or cut given only in a name is not applied to a line headed by its entry.
UniProt P36544, whole entry: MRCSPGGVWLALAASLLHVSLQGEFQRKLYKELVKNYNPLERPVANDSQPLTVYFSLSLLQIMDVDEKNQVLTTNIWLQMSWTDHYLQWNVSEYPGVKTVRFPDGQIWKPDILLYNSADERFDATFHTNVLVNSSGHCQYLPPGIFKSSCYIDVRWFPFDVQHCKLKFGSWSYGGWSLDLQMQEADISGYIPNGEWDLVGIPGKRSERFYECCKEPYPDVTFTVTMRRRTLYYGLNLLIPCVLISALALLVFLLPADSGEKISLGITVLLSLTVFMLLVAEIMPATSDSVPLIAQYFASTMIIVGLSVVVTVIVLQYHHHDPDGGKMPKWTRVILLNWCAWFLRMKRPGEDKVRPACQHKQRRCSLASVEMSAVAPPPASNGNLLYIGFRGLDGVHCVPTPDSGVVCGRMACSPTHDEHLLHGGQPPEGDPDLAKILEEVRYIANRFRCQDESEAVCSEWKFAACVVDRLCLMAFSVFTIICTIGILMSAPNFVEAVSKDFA
UniProt Q9UGM1: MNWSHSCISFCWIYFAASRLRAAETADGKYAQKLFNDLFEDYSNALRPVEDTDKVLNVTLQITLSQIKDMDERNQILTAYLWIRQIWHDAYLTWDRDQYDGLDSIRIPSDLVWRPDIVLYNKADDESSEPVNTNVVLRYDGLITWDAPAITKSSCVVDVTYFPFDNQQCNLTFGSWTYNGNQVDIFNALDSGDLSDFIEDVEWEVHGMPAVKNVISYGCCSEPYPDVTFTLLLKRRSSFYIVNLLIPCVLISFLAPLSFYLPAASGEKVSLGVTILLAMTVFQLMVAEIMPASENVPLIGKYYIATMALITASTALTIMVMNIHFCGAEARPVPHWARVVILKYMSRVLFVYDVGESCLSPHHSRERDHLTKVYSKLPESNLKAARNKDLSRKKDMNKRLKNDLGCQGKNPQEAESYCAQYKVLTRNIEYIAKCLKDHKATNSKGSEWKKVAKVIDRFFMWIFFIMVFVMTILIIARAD

Experiments:
[1] = target: Neuronal acetylcholine receptor subunit alpha-7 (Homo sapiens, UniProt P36544); experiment: Agonist activity at alpha7 nAChR (unknown origin) assessed as fold change in maximum response (Imax) relative to acetylcholine; conditions: filed as agonist
[2] = target: Neuronal acetylcholine receptor subunit alpha-9 (Homo sapiens, UniProt Q9UGM1); experiment: Agonist activity at alpha9 nAChR (unknown origin) assessed as fold change in maximum response (Imax) relative to acetylcholine; conditions: filed as agonist

`CC[N+]1(CC)CCN(c2ccc(C(=O)Nc3cccc(C)n3)cc2)CC1.[I-]` gave a fold change (FC) [1] of 0.42 and a fold change (FC) [2] of 1.06.
